## scFv variants of Ab-14 (light chain) against a SARS-CoV-2 spike peptide

Data: MIT Lincoln Laboratory AlphaSeq set, Engelhart et al. 2022, doi:10.1038/s41597-022-01779-4, as distributed in FLAb.

Antigen: PDVDLGDISGINAS, a 14-residue peptide of the SARS-CoV-2 spike HR2 region.

Parent scFv Ab-14: VH joined to VL by a (GGGGS)3 linker. Changes lie in the light chain CDRs alone.
VH: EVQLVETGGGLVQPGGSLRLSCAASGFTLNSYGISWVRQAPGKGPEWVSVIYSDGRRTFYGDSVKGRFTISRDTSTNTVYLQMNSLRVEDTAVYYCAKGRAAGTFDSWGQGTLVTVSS
VL: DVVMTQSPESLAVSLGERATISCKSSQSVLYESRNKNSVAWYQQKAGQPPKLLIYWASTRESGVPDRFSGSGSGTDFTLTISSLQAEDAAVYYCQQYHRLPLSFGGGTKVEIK

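Phage display of a naive human antibody library on the peptide gave the parent. In library AAYL50, one, two or three CDR residues were substituted; doubles and triples were drawn at random. Affinity was read by AlphaSeq, a pooled yeast mating assay with surface-displayed partners. The frequency of each diploid, read from paired DNA barcodes, reflects how well the two displayed proteins bind. Scores were corrected for input abundance and mapped to Kd with protein pairs of known affinity run in the same pool. Mating was done three times.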

Sequences are complete VL domains. Values are log10 of the apparent Kd in nM; lower means stronger binding. A pair that was not seen in that replicate is written "nd"; this usually means weak binding, but a binder can also be missed. Three control strains display no target. For library AAYL50, 18% of the pairings with them gave a signal, with a median of 4.19 and one signal in twenty below 2.99, so weak values seen in few replicates may be background. Also given: how often the same scFv was detected with the empty control strains, with their mean in brackets. In this assay the parent's reference entry averaged 0.65; its copy inside this library read 1.68.

VL | log10 Kd, replicates | signal with controls
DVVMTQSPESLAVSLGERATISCKSSQSKHYESRNKNSVAWYQQKAGQPPKLLIYWASTRESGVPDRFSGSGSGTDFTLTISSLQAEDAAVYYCQQNHRLPLSFGGGTKVEIK | 2.77 2.65 5.14 | 2/9 (4.51)
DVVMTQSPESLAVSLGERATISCKSSQSVLYESRNKNSVAWYQQKAGQPPKLLIYWASTRESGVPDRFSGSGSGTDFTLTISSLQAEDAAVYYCEQYHRLPLSFGGGTKVEIK | 1.55 2.36 nd | 1/9 (3.17)
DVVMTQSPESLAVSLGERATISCKSSISVLYESRNKNSVAWYQQKAGQPPKLLIYWASTRESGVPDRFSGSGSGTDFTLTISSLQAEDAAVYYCQQIHRLPISFGGGTKVEIK | nd 3.98 nd | 1/9 (3.93)
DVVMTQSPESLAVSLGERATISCKSSQSILYESRNKNSVAWYQQKAGQPPKLLIYKASTRESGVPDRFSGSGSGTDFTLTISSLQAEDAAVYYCQQYKRLPLSFGGGTKVEIK | -0.13 0.14 0.05 | 3/9 (4.34)
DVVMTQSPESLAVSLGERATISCKSSQSVLYESRNKNSVDWYQQKAGQPPKLLIYWASTRELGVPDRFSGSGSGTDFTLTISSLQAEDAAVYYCQQYYRLPLSFGGGTKVEIK | nd nd nd | 0/9
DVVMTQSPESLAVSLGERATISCKSSQSVLYMSRNKNSVAWYQQKAGQPPKLLIYWASTRESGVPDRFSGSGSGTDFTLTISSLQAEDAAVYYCQQPHRLPLSFGGGTKVEIK | 2.32 2.89 3.67 | 0/9
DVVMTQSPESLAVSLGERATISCKSSQSVLWESRNKNSVAWYQQKAGQPPKLLIYWASTRESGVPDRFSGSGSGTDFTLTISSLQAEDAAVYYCQQYHRLFLMFGGGTKVEIK | 1.33 1.10 2.00 | 0/9
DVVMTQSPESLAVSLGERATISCKSSMSVLYESRNKNSVAWYQQKAGQPPKLLIYWASTRESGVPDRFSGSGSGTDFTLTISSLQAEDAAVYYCQIYHRLPLHFGGGTKVEIK | nd nd nd | 1/9 (2.06)
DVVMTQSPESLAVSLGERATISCKSHQSVLFESRNKNSVAWYQQKAGQPPKLLIYWASTRESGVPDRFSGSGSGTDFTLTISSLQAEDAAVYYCQQYHRLPLCFGGGTKVEIK | 2.75 2.46 2.82 | 1/9 (3.44)
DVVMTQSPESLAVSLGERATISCKWSQSVLYESRNKNRVAWYQQKAGQPPKLLIYWASTRESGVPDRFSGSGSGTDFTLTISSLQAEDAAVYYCQQYHQLPLSFGGGTKVEIK | 1.91 1.96 2.07 | 2/9 (4.46)
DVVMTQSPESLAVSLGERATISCKSSPSVLYESRMKNSVAWYQQKAGQPPKLLIYWASTPESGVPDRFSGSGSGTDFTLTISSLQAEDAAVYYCQQYHRLPLSFGGGTKVEIK | nd nd 4.84 | 2/9 (3.83)
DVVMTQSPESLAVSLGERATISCKSSQSVLYESRNKNSVAWYQQKAGQPPKLLIYLASTRESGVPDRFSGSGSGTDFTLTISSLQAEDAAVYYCQLYHRLRLSFGGGTKVEIK | 1.17 1.28 1.35 | 4/9 (4.57)
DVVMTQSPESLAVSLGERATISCKSMQSVLYESRNKNSYAWYQQKAGQPPKLLIYWASTRESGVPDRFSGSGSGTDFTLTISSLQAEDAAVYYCQQYHRLPLMFGGGTKVEIK | nd nd nd | 0/9
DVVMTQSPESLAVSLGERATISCKDSQSVLYESRNKNVVAWYQQKAGQPPKLLIYHASTRESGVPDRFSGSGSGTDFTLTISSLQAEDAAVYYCQQYHRLPLSFGGGTKVEIK | 1.49 1.64 2.10 | 2/9 (3.10)
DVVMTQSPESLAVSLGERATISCKSSQSVLYESRNKNSVQWYQQKAGQPPKLLIYWASTRESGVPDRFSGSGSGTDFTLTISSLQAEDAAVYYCQAFHRLPLSFGGGTKVEIK | nd 3.08 3.59 | 1/9 (3.62)
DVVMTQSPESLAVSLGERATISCKSSQEWLYESRNKNSVAWYQQKAGQPPKLLIYWASTRESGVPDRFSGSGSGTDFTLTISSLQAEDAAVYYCQQTHRLPLSFGGGTKVEIK | 0.08 0.39 0.23 | 3/9 (4.21)
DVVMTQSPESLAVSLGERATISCKSSQSVLYESRNKNSVAWYQQKAGQPPKLLIYKASTRESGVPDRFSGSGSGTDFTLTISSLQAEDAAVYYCQQYHYLQLSFGGGTKVEIK | nd nd nd | 0/9
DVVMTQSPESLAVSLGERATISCKSSQSVLYESRNKNSVAWYQQKAGQPPKLLIYWAHTRFSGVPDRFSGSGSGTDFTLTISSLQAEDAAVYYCQQYYRLPLSFGGGTKVEIK | nd nd nd | 2/9 (4.23)
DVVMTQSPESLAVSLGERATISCKSSQSVLYESRNKNVVAWYQQKAGQPPKLLIYWASTRTSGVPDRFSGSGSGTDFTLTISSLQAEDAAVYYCIQYHRLPLSFGGGTKVEIK | nd nd nd | 2/9 (2.94)
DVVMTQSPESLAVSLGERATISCKSSQSVLRESRNKNSVAWYQQKAGQPPKLLIYWASTRESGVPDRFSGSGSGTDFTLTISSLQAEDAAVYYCVQYHRLCLSFGGGTKVEIK | nd nd nd | 0/9
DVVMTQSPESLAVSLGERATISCKSSQMVKYESYNKNSVAWYQQKAGQPPKLLIYWASTRESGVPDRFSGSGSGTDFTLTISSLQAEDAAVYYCQQYHRLPLSFGGGTKVEIK | 1.46 1.44 2.16 | 2/9 (3.68)
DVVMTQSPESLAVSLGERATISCKSSQSNLYESRNKNIVAWYQQKAGQPPKLLIYWAWTRESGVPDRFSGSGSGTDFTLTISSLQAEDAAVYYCQQYHRLPLSFGGGTKVEIK | 5.01 nd nd | 0/9
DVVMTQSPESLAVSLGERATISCFSSQSVLYESPNKNSVAWYQQKAGQPPKLLIYWGSTRESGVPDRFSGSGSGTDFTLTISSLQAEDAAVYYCQQYHRLPLSFGGGTKVEIK | 0.61 1.03 0.77 | 5/9 (5.05)

Top 2 of the variants detected in all replicates, tightest first:

VL,"log10 Kd, replicates",signal with controls
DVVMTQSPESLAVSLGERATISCKSSQSILYESRNKNSVAWYQQKAGQPPKLLIYKASTRESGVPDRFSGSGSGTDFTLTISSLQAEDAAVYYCQQYKRLPLSFGGGTKVEIK,-0.13 0.14 0.05,3/9 (4.34)
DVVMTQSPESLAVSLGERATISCKSSQEWLYESRNKNSVAWYQQKAGQPPKLLIYWASTRESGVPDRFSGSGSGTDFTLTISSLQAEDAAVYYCQQTHRLPLSFGGGTKVEIK,0.08 0.39 0.23,3/9 (4.21)